This experiment deals with chimeric human IgG1 mAb ch735 (mouse | human). Kind of experiment: SPR. On the technique in general: SPR reads the build-up and loss of mass on a sensor chip optically.

The chains behind the UniProt entries cited, without tags or fusion partners. Residues count along the entry.
UniProt P13590, 20-711: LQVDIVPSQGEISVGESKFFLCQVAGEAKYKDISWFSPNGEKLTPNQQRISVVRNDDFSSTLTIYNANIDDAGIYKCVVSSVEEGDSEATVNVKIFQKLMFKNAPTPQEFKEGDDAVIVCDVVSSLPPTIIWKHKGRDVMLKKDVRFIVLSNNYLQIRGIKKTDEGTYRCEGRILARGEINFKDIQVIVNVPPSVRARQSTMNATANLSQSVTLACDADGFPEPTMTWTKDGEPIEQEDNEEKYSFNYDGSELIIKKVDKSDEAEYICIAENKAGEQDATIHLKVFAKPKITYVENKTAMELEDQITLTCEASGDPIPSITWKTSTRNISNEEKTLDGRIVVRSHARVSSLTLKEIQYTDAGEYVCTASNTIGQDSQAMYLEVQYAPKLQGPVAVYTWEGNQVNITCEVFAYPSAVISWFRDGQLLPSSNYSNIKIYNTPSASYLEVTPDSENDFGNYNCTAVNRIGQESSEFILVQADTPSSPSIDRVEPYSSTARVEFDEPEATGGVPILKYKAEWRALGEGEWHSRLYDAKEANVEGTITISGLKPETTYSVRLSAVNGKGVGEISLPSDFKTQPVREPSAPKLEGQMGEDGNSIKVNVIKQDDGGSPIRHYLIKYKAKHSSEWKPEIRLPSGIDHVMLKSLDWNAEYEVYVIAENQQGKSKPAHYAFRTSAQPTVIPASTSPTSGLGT

As a reminder, the Kd is a measure of binding affinity in units of concentration.

In turn, “chicken brain-derived polysialylated neural cell adhesion molecule (NCAM) (from UniProt P13590 20-711) (natural protein)” gave a Kd of 4.79 nM.
